Source: PubChem BioAssay
Nrf2 block – blocks Nrf2 signaling | A549 ARE-Fluc reporter, luciferase luminescence, 18-24 h | Potency, µM (series often up to 46 µM), for inactives: at the highest dose activity change, negative = inhibition, hits mostly inhibitors | hit rate 2.1% among 360,000; further: potency means the concentration at half of the fitted maximal effect; on the % scale 0 is the no-effect control and ±100 the full control effect; nearly all actives have a fitted effect of over 60% in size
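Reporter: ARE-Fluc in A549. Exposure: 18-24 h, 37 °C, 5% CO2, 5% FBS OPTI-MEM. Readouts: fluorescent cytotoxicity (CellTiter-Fluor), then luminescent Nrf2 signal after BugLite.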
ClpP mod – qHTS Assay for Activators of ClpP. ATP-dependent Clp protease proteolytic subunit (Bacillus subtilis (strain 168)), P80244. purified B. subtilis ClpP, FRET peptide cleavage, 20 min. Potency, µM (highest dose often 57.5 µM), inactives show at the highest dose activity change, negative = active. hit rate 1.9% among 340,000. AID 651965, 2013; active means well fitted falling curve with a large enough effect; inconclusive means small, poorly fitted or top-dose-only effect; inactive means no such curve, though single readings can be large or run the other way; further: potency means the concentration at half of the fitted maximal effect; the source files actives as falling curves though it sought activators and does not explain the sign; nearly all actives have a fitted effect of over 65% in size
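Purified B. subtilis ClpP, 10 microg/mL final in Tris/HCl pH8 with KCl, BSA, glycerol and Tween-20, cleaved an Abz/nitrotyrosine-quenched decapeptide. Fluorescence (ex 320, em 430) was read at 0 and 20 min at room temperature. Delta was normalized to 5.8 microM ADEP and DMSO/no-enzyme controls.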
Nrf2 activator – Nrf2 pathway activation. AID 624171. Potency, µM (top dose mostly 46.1 µM), for inactives: at the highest dose activation, most hits filed as activators. AREc32 ARE-luciferase reporter (MCF7-derived line), luminescence, 24 h. hit rate 0.31% among 410,000; further: potency means the concentration at half of the fitted maximal effect; % of control where 0% means no effect; nearly all actives have a fitted effect of over 65% in size
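Each well held 1000 AREc32 cells, which were incubated with compound for 24 hr at 37 deg C after overnight attachment, and ARE reporter activity was quantified by firefly luciferase luminescence.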
A549 viability – kills or reduces viability of A549 cells in Nrf2 counter-screen; A549 ARE-Fluc cells, CellTiter-Fluor viability, 18-24 h; Potency, µM (highest dose often 46 µM), for the others: top-dose activity change, negative = cytotoxicity, most hits filed as inhibitors; hit rate 0.16% among 390,000; further: potency means the concentration at half of the fitted maximal effect; on the % scale 0 is the no-effect control and ±100 the full control effect
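A549 ARE-Fluc cells in 5% FBS OPTI-MEM, 5000 cells/well, rested 2 h then exposed to compounds in concentration-response for 18-24 h at 37 °C. Viability by CellTiter-Fluor fluorescence (Ex 405/Em 525) after 30 min; luciferase luminescence (BugLite, 15 min, RT) read afterwards.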
p53 reactivation – restores transcriptional activity of mutant p53 | H1299 p53-A138V BP100-luciferase reporter, luminescence, 24 h | Potency, µM (highest dose often 92.2 µM), for the others: top-dose activity change, positive = activation, usual class: activators | hit rate 0.063% among 320,000 | AID 504706; further: potency means the concentration at half of the fitted maximal effect; % of control where 0% means no effect; nearly all actives have a fitted effect of over 45% in size
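p53-null H1299 cells stably carrying temperature-sensitive p53-A138V and a BP100-luciferase reporter were pinned with compounds (4-point, 1:5 series) and held 24 hrs at 37 deg C. Luminescence was read 10 min after detection reagent.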
miR-21 reporter – miR-21 reporter, rising signal | AID 2288 | HeLa miR-21 FLuc reporter, luciferase, 48 h | 340,000 tested, under 10 active | Potency, µM (doses to about 38.3 µM), for inactives: at the top dose reporter change, positive = more light; active = well fitted rising curve with a large enough effect; inconclusive = small, poorly fitted or top-dose-only effect; inactive = no such curve, though single readings can be large or run the other way;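 note: % of control where 0% means no effect; miR-21 action dims this reporter so a rising signal means less miR-21 action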
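HeLa cells endogenously expressing miR-21, stably carrying CMV-driven firefly luciferase with a downstream miR-21 binding site, 2000 cells/well. Titrations up to approximately 40 uM, 48 hours; luciferase luminescence read.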
The depositor's hits bear a star; u = inconclusive; x = no result. An excerpt weighted towards active compounds, which were near 3.7% of everything screened. Unless noted, the call rests on the fitted dose curve; in most records, active means well fitted curve in the direction sought with a large enough effect; inconclusive means small, poorly fitted or top-dose-only effect, or another doubt; inactive means no such curve, though single readings can be large; an effect the other way counts as inactive or inconclusive.

By UniProt entry, the sequences of proteins in these tests, tags left out.
ATP-dependent Clp protease proteolytic subunit (Bacillus subtilis (strain 168)), P80244, UniProt P80244, whole entry, looked up: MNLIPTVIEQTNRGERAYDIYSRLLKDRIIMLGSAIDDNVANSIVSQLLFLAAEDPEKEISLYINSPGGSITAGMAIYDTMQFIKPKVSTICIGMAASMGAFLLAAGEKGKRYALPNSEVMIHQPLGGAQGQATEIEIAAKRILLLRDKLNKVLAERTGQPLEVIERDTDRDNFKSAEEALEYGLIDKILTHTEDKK

Letter code – A = Nrf2 block; B = ClpP mod; C = Nrf2 activator; D = A549 viability; E = p53 reactivation; F = miR-21 reporter
Compound: Cc1ccc(S(=O)(=O)/N=C2\C=C(Nc3cccc(C(=O)O)c3)C(=O)c3ccccc32)cc1
  A: 3.9% | B: 1.9% | C: -1.7% | D: -7.6% | E: -15.6% | F: 29.4%
Compound: O=C1C(Nc2ccccc2)=C/C(=N/S(=O)(=O)c2cccs2)c2ccccc21
  A: 8.2µM* | B: 11.2µM* | C: -2.5% | D: 14.6µM* | E: -27.5% | F: u
Compound: Cc1ccc(S(=O)(=O)/N=C2\C=C(Nc3ccc(O)cc3)C(=O)c3ccccc32)cc1
  A: 18.4µM* | B: 0.7% | C: -3.8% | D: 16.4µM* | E: -14.6% | F: x
Compound: CC(C)c1nc2sc3ccccc3c(=O)c2c(=O)n1Cc1ccccc1
  A: 25.9µM* | B: 0.8% | C: 0.5% | D: -7.4% | E: -3.7% | F: -1.9%
Compound: COc1ccc(Cn2c(C(C)C)nc3sc4ccccc4c(=O)c3c2=O)cc1
  A: u | B: x | C: -0.9% | D: u | E: -3.0% | F: -0.5%
Compound: CC1=C(C(=O)OC2CCCCCC2)C(c2c(F)cccc2Cl)CC(=O)N1 (stereo not given)
  A: u | B: 0.4% | C: -0.4% | D: 4.7% | E: x | F: 11.8%
Compound: Cc1ccc(Nc2c(-c3ccco3)nc3ccc(C)cn23)cc1
  A: 2.3% | B: 6.31µM* | C: 3.7% | D: 0.1% | E: x | F: -12.0%
Compound: Cc1ccc(Nc2c(-c3ccc(C)cc3)nc3ccc(C)cn23)cc1
  A: 14.7% | B: u | C: 0.7% | D: 1.8% | E: x | F: -19.3%
Compound: CN(C)S(=O)(=O)c1cccc(NC(=O)CCc2nc3sc4c(c3c(=O)[nH]2)CCCC4)c1
  A: 16.4µM* | B: -1.6% | C: 1.5% | D: -15.7% | E: 1.1% | F: x
Compound: Cc1cccc(NC(=O)CCc2nc3sc4c(c3c(=O)[nH]2)CCCC4)c1
  A: 7.6% | B: -0.8% | C: 0.2% | D: 0.0% | E: 6.6% | F: x
Compound: Cc1cccc(C)c1NC(=O)CN1C(=O)c2cccc3cccc1c23
  A: x | B: -11.8% | C: 0.7% | D: u | E: x | F: -12.7%
Compound: COc1ccc(CN2C(=O)CN(S(C)(=O)=O)CC2(C)C(=O)NC(C)C)cc1OC (stereo not given)
  A: x | B: -3.7% | C: x | D: x | E: x | F: x
Compound: C/C(=N\Nc1nc(C)cc(-c2ccccc2)n1)c1cccc(N)c1
  A: 20.6µM* | B: 1.3% | C: 2.3% | D: -4.4% | E: -3.2% | F: 11.8%
Compound: C/C(=N\Nc1nc(C)cc(-c2ccccc2)n1)c1ccccc1
  A: -27.4% | B: -0.3% | C: 2.5% | D: -7.0% | E: -5.8% | F: 1.7%
Compound: C[C@@H]1[C@H](c2ccccc2)OCCS(=O)(=O)N1Cc1cccc(C(F)(F)F)c1
  A: x | B: -0.6% | C: x | D: x | E: x | F: x

Only A549 viability, Nrf2 activator and miR-21 reporter, for some of the entries so far:
| Molecule | A549 viability | Nrf2 activator | miR-21 reporter |
| --- | --- | --- | --- |
| Cc1ccc(S(=O)(=O)/N=C2\C=C(Nc3cccc(C(=O)O)c3)C(=O)c3ccccc32)cc1 | -7.6% | -1.7% | 29.4% |
| Cc1ccc(Nc2c(-c3ccc(C)cc3)nc3ccc(C)cn23)cc1 | 1.8% | 0.7% | -19.3% |

An excerpt from above in order of the p53 reactivation value, descending.
SMILES	p53 reactivation
C/C(=N\Nc1nc(C)cc(-c2ccccc2)n1)c1cccc(N)c1	-3.2%
CC(C)c1nc2sc3ccccc3c(=O)c2c(=O)n1Cc1ccccc1	-3.7%
O=C1C(Nc2ccccc2)=C/C(=N/S(=O)(=O)c2cccs2)c2ccccc21	-27.5%

The list goes on.
Letter code – A = Nrf2 block; B = ClpP mod; C = Nrf2 activator; D = A549 viability; E = p53 reactivation; F = miR-21 reporter
Compound: O=C1CC(=C(c2ccccc2)c2ccccc2)C(=O)N1CCN1CCN(c2cccc(Cl)c2)CC1
  A: -26.4% | B: 25.1µM* | C: -0.6% | D: -24.1% | E: 2.7% | F: 1.5%
Compound: Cn1c(N)c(C(=O)COC(=O)c2cccnc2Cl)c(=O)n(C)c1=O
  A: 1.6% | B: x | C: 0.6% | D: -0.8% | E: 0.9% | F: -6.1%
Compound: Cn1c(N)c(C(=O)COC(=O)c2nc(Cl)ccc2Cl)c(=O)n(C)c1=O
  A: 5.7% | B: -4.5% | C: 2.24µM* | D: 1.0% | E: 1.9% | F: -4.1%
Compound: CCN(c1ccccc1)S(=O)(=O)c1cc(C(=O)OCC(=O)c2c(N)n(C)c(=O)n(C)c2=O)ccc1C
  A: 18.4µM* | B: -4.9% | C: 2.7% | D: u | E: x | F: x
Compound: CCCCCCn1nc(C(=O)OCC(=O)c2c(N)n(C)c(=O)n(C)c2=O)c2ccccc2c1=O
  A: 23.1µM* | B: x | C: -0.8% | D: -3.9% | E: -7.9% | F: 0.2%
Compound: Cc1ccc(NC(=O)C2CCCN(S(=O)(=O)c3cccc4cccnc34)C2)c(C)c1 (stereo not given)
  A: 14.4% | B: -0.7% | C: 0.4% | D: 3.4% | E: x | F: 11.0%
Compound: O=C(CSc1c2c(nc3cc(Cl)ccc13)CCCC2)N1CCN(c2ccccc2F)CC1
  A: u | B: -0.4% | C: u | D: u | E: x | F: 15.3%
Compound: COc1ccc(Cl)cc1-c1cc(C(=O)NCc2cccc(C(F)(F)F)c2)[nH]n1
  A: x | B: -5.0% | C: 0.0% | D: x | E: x | F: x
Compound: Cc1ccc(-n2[nH]c(C)c(/C=N/Nc3ccc([N+](=O)[O-])cc3[N+](=O)[O-])c2=O)cc1C
  A: u | B: -0.8% | C: 5.9% | D: 16.4µM* | E: -2.5% | F: -4.0%
